Values of other authors, collected in PubChem BioAssay AID977611.

Columns and labels:
Test in all cases: PubChem AID 977611
mutator mutt protein = details: PDB protein-ligand complexes, literature Kd, protein: mutator mutt protein
trypsin beta = details: PDB protein-ligand complexes, literature Kd, protein: trypsin beta
[1] = biological target: anti-methamphetamine single chain Fv; details: PDB protein-ligand complexes, literature Kd, protein: anti-methamphetamine single chain Fv
[2] = biological target: aspartate aminotransferase; details: PDB protein-ligand complexes, literature Kd, protein: aspartate aminotransferase
Aplysia AChBP = details: PDB protein-ligand complexes, literature Kd, protein: Aplysia AChBP
[3] = biological target: nucleoside diphosphate kinase; details: PDB protein-ligand complexes, literature Kd, protein: nucleoside diphosphate kinase
carbonic anhydrase ii = details: PDB protein-ligand complexes, literature Kd, protein: carbonic anhydrase ii
[4] = biological target: 6,7-dimethyl-8-ribityllumazine synthase; details: PDB protein-ligand complexes, literature Kd; protein: 6,7-dimethyl-8-ribityllumazine synthase; PDB entry 2A58
[5] = biological target: Phenylethanolamine N-methyltransferase, PNMT; details: PDB protein-ligand complexes, literature Kd, protein: Phenylethanolamine N-methyltransferase, PNMT
Galectin-1 = details: PDB protein-ligand complexes, literature Kd, protein: Galectin-1
[6] = biological target: Gag-Pol polyprotein (Pr160Gag-Pol); details: PDB protein-ligand complexes, literature Kd, protein: Gag-Pol polyprotein (Pr160Gag-Pol)
transthyretin = details: PDB protein-ligand complexes, literature Kd; protein: transthyretin; PDB entry 1E5A
[7] = biological target: 6-hydroxymethyl-7,8-dihydropterin pyrophosphoki; details: PDB protein-ligand complexes, literature Kd, protein: 6-hydroxymethyl-7,8-dihydropterin pyrophosphoki

Nc1nc2c([nH]c(=O)n2[C@H]2C[C@H](O)[C@@H](COP(=O)(O)O)O2)c(=O)[nH]1
Kd (mutator mutt protein; PDB entry 1PPX): 0.052 µM | Kd (mutator mutt protein; PDB entry 1PUN): 0.052 µM | Kd (mutator mutt protein; PDB entry 1PUQ): 0.052 µM | Kd (mutator mutt protein; PDB entry 1PUS): 0.052 µM

N=C(N)c1cccc(C[C@H](NS(=O)(=O)c2ccc3ccccc3c2)C(=O)N2CCCC[C@@H]2C(=O)O)c1
Kd (trypsin beta; PDB entry 1K1I): 0.264 µM

CN[C@@H](C)Cc1ccccc1
Kd ([1]; PDB entry 3GKZ): 0.01 µM

O=C(O)CCC(=O)O
Kd ([2]; PDB entry 1CZE): 2400 µM

CC(=O)N1CCN(C(=O)[C@H](Cc2cccc(C(=N)N)c2)NS(=O)(=O)c2ccc3ccccc3c2)CC1
Kd (trypsin beta; PDB entry 1K1M): 0.04 µM

COc1ccc(/C=C2\CCCN=C2c2cccnc2)c(OC)c1
Kd (Aplysia AChBP; PDB entry 2WNJ): 0.33 µM

Nc1ncnc2c1ncn2[C@@H]1O[C@H](COP(=O)(O)OS(=O)(=O)O)[C@@H](OP(=O)(O)O)[C@H]1O
Kd ([3]; PDB entry 1BUX): 14 µM

N[C@@H](Cc1ccccc1)C(=O)NCCOCCOCCNC(=O)c1ccc(S(N)(=O)=O)cc1
Kd (carbonic anhydrase ii; PDB entry 1CNY): 0.014 µM

CN[C@@H](C)Cc1ccc2c(c1)OCO2
Kd ([1]; PDB entry 3GM0): 0.017 µM

NS(=O)(=O)c1ccc(CCNC(=S)Nc2ccc(-c3c4ccc(=O)cc-4oc4cc(O)ccc34)c(C(=O)O)c2)cc1
Kd (carbonic anhydrase ii; PDB entry 2F14): 0.00064 µM

Cc1cc2nc3c(=O)[nH]c(=O)[nH]c3[n+](C[C@H](O)[C@H](O)[C@H](O)CO)c2cc1C
Kd [4]: 12 µM

NC(=O)c1ncn([C@@H]2O[C@H](COP(=O)(O)OP(=O)(O)OP(=O)(O)O)[C@@H](O)[C@H]2O)n1
Kd ([3]; PDB entry 1MN9): 24 µM

O=C(O)/C=C\C(=O)O
Kd ([2]; PDB entry 1AHY): 440 µM | Kd ([2]; PDB entry 1TOK): 3400 µM

COc1cc(O)ccc1/C=C1\CCCN=C1c1cccnc1
Kd (Aplysia AChBP; PDB entry 2WN9): 0.003 µM

Nc1ccc2ncccc2c1
Kd ([5]; PDB entry 3KQP): 380 µM

OC[C@H]1O[C@@H](S[C@@H]2O[C@H](CO)[C@H](O)[C@H](O)[C@H]2O)[C@H](O)[C@@H](O)[C@H]1O
Kd (Galectin-1; PDB entry 3OYW): 78 µM

COC(=O)C1CCN(C(=O)[C@H](Cc2cccc(C(=N)N)c2)NS(=O)(=O)c2ccc3ccccc3c2)CC1
Kd (trypsin beta; PDB entry 1K1J): 0.028 µM

O=C(O)[C@H](O)[C@@H](O)[C@H](O[C@@H]1O[C@H](CO)[C@H](O)[C@H](O)[C@H]1O)[C@H](O)CO
Kd (Galectin-1; PDB entry 3OY8): 220 µM

CCC[C@@]1(CCc2ccccc2)CC(O)=C([C@H](CC)c2cccc(NS(=O)(=O)c3ccc(C(F)(F)F)cn3)c2)C(=O)O1
Kd ([6]; PDB entry 2O4L): 0.608 nM | Kd ([6]; PDB entry 2O4N): 15 nM | Kd ([6]; PDB entry 2O4P): 0.019 nM

Clc1ncnc2nc[nH]c12
Kd ([5]; PDB entry 3KQO): 140 µM

N#Cc1ccc(N(Cc2ccc(OS(N)(=O)=O)c(Br)c2)n2cnnc2)cc1
Kd (carbonic anhydrase ii; PDB entry 1XQ0): 0.454 µM

Oc1c(Br)cc(Br)cc1Br
Kd (transthyretin): 0.023 µM

Nc1ncnc2c1ncn2[C@@H]1O[C@H](COP(=O)(O)CP(=O)(O)OP(=O)(O)O)[C@@H](O)[C@H]1O
Kd ([7]; PDB entry 1RU1): 18 µM | Kd ([7]; PDB entry 1RU2): 0.32 µM | Kd ([7]; PDB entry 1TMM): 0.23 µM

Cc1cccc(C)c1OCC(=O)N[C@@H](Cc1ccccc1)[C@@H](O)C[C@H](Cc1ccccc1)NC(=O)[C@H](C(C)C)N1CCCNC1=O
Kd ([6]; PDB entry 2O4S): 0.031 nM
